From ChEMBL document CHEMBL5584361, “Re-Evaluating PIN1 as a Therapeutic Target in Oncology Using Neutral Inhibitors and PROTACs” (J Med Chem, 2024) come the findings set out here.

One data set deals with MDA-MB-468. Nature of the data set: Antiproliferative activity against human MDA-MB-468 cells assessed as cell growth inhibition incubated for 96 hrs by Cell-Titer Glo assay. Conditions: MDA-MB-468, 96 h.
A further data set concerns PANC-1. Nature of the data set: Antiproliferative activity against human PANC-1 cells assessed as cell growth inhibition incubated for 96 hrs by Cell-Titer Glo assay. The following applies: PANC-1, 96 h.
For a further data set, the system named is Huh-7. Nature of the data set: Antiproliferative activity against human Huh-7 cells assessed as cell growth inhibition incubated for 96 hrs by Cell-Titer Glo assay. Conditions: Huh-7, 96 h.
A short description of data set [1]: Permeability across apical to basolateral side in MDCK cells incubated for 120 mins by LC-MS/MS analysis. Conditions: dog.

As usually defined, the GI50 is the concentration giving 50% growth inhibition. In general, Papp A→B refers to the apparent permeability from the apical to the basolateral side of a cell layer. Turning to `CNC(=O)C(Cc1cn(-c2ccc(-c3ccc(C#N)cc3)cc2)nn1)NC(=O)C1(c2ccccc2)CC1` (centres undefined), the GI50 in the data set on MDA-MB-468 is 37.1 µM; with PANC-1 it was above 30 µM; in the data set on Huh-7 it was 19.1 µM. This compound also came in with a Papp A→B at 2 h in data set [1] of 0.57 ×10⁻⁶ cm/s.
